Assay results: US20250144172A1, “ANTI-FIBROTIC SIALIDASE INHIBITOR COMPOUNDS AND METHODS OF USE” (The Texas A&M University System, priority 2016, published 2025)

Sequences of proteins named here, by UniProt entry; tags and fusion partners are left off. A change or cut given only in a name is not applied to a line headed by its entry.
UniProt Q8WWR8: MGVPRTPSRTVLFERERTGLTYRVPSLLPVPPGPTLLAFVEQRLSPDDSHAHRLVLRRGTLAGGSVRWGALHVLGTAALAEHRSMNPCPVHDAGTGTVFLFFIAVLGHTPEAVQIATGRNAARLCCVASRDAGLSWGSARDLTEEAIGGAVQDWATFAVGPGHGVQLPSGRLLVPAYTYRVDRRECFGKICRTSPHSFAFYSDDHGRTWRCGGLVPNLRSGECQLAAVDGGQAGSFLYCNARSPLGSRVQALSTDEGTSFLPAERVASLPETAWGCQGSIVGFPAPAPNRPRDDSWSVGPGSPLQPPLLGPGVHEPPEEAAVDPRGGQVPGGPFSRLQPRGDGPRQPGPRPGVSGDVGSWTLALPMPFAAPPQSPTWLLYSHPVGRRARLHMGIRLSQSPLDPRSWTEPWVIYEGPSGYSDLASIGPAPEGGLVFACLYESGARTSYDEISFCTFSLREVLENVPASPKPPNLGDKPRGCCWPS
UniProt Q9UQ49: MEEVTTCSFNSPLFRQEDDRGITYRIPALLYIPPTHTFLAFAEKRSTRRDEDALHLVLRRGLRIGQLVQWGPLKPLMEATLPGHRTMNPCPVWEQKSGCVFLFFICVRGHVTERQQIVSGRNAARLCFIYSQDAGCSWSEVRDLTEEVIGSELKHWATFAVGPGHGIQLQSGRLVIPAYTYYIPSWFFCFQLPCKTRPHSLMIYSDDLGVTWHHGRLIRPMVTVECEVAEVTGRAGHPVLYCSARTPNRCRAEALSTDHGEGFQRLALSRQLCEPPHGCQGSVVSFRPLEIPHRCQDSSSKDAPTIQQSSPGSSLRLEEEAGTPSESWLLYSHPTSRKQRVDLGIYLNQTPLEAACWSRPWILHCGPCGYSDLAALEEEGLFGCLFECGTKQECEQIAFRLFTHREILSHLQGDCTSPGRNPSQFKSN

Legend:
[1] = tested on: mammalian sialidases; conditions: cited from earlier work
[2] = molecular target: human NEU4 (Homo sapiens (Human), UniProt Q8WWR8); experiment: human NEU4 sialidase inhibition; conditions: read-out: NEU4 IC50
[3] = molecular target: human NEU3 (Homo sapiens (Human), UniProt Q9UQ49); experiment: human NEU3 sialidase inhibition; conditions: read-out: NEU3 IC50

| IC50 [3] [µM] | SMILES | inhibition of mammalian sialidases [1] | IC50 [2] [µM] |
| --- | --- | --- | --- |
|  | CC(=O)N[C@H]1[C@H]([C@H](O)[C@H](O)CO)OC(C(=O)O)=C[C@@H]1O [Compound 1, N-Acetyl-2,3-dehydro-2-deoxyneuraminic acid, reference compound] | inhibits all mammalian sialidases | 74 |
| 180 ± 40 | CC(=O)N[C@H]1C([C@@H](O)[C@@H](O)Cn2cc(C(C)(C)O)nn2)OC(C(=O)O)=C[C@@H]1O (stereo partly drawn) [Compound 57] |  |  |
